## scFv variants of Ab-14 (heavy chain) against a SARS-CoV-2 spike peptide

Binding partner: SARS-CoV-2 spike HR2 peptide, sequence PDVDLGDISGINAS.

Parent: Ab-14, a human scFv built as VH, three GGGGS repeats, VL. Only the CDRs of the heavy chain vary.
VH: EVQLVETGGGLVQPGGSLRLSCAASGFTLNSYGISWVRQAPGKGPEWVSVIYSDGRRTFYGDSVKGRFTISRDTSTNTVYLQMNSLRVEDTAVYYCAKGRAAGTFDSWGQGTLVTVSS
VL: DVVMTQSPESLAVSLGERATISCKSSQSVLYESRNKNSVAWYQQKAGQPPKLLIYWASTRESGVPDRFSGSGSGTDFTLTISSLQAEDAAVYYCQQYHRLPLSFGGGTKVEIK

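The starting antibody came from a phage panning campaign against this peptide. Designed CDR sequences, proposed from the first random library and measured here. Group labels follow the data file (Ctrl: baseline library sampled from a position-specific scoring matrix, with some repeated check sequences; Rand: our label for a block that the file lists under HC and that is probably the random mutants of the ten best first-round binders; En: ensemble of fine-tuned language models; GP: Gaussian process model; GPLM: also part of the Gaussian process libraries; HC: hill climbing; Gen: genetic algorithm; Gibbs: Gibbs sampling; a sequence that several methods proposed may carry one label only). The scFvs were displayed on barcoded MATa yeast, the peptide on MATalpha yeast. Mating (16 h, 30 °C) was followed by selection of diploids and sequencing of their barcodes. Read counts were normalised to the haploid input and turned into Kd by a linear fit to BCL2-family pairs of known affinity, for each replicate. The assay was run in six technical replicates.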

Variants are written as CDR1, CDR2 and CDR3 of the heavy chain (limits as in the source). Parent: GFTLNSYGIS, VIYSDGRRTFYGDSVK, GRAAGTFDS. The read-out is the apparent dissociation constant on a log10 scale (nM): the lower, the stronger. The mean shown is taken over the replicates in which the pair was detected. "not detected" means that the variant was in the library but no mating with the target was seen in any replicate; the authors take this as a sign of poor binding, and no number exists. Order: sorted from the lowest average up, undetected variants last. The parent sequence was in this pool as ten entries: three were never detected, three once, and four in most replicates, with averages from 0.34 to 2.37. Some sequences occur more than once in the pool; their replicates are pooled. Values of this round are not directly comparable with the first-round values of the same sequences. Empty control strains, which show no peptide, gave a signal in 1% of pairings with all heavy chain designs; the median was 2.08 and 95% of these signals were weaker than 0.84. No background was subtracted. For each scFv, signals with the empty controls are counted beside the result. The authors' rule: three or more of the six replicates give a measured affinity, fewer mean a poor binder.

CDR-H1	CDR-H2	CDR-H3	group	mean log10 Kd (nM)	detected	signal with controls
GFDLNEYGIS	VIYADGRRTSYADSVK	GETAGTFDV	En_HC	-0.88	6/6	0/18
GFDLDEYGIS	VIYADGQRTYYADSVK	GENAGTFDV	En_Gen	-0.88	2/6	0/18
GFDLDEYGIS	VIYADGMRTAYADSVK	GTVAGTFDV	En_Gen	-0.80	6/6	0/18
GFDLNEYGIS	VIYADGRRTFYTDNVK	GQNAGTFDQ	En_HC	-0.71	6/6	0/18
GFDLNEYGIS	VIYADGMRTAYSDNVK	GNVAGTFDT	En_Gen	-0.60	6/6	0/18
GFSLNEYGIS	VIYSDGRRTFYGDSVK	GRIAGTFDS	GPLM_Gen	-0.59	6/6	0/18
GFDLDEYGIS	VIYADGMRTFYADSVK	GNIAGTFDF	En_HC	-0.54	6/6	0/18
GFNLDEYGIS	VIYADGRRTFYTDSVK	GEVAGTFDV	En_HC	-0.53	6/6	0/18
GFSLNSYGIS	VIYSDGRRTFYSDSVK	GLTAGTFDS	GPLM_Gen	-0.29	6/6	1/18
GFDLNEYGIS	VIYADGKRTAYTDSVK	GETAGTFDQ	En_Gen	-0.27	6/6	0/18
GFDLNEYGIS	VIYADGRRTFYADSVK	GNVAGTFNQ	En_HC	-0.20	6/6	0/18
GFDLNEYGIS	VIYADGVRTAYIDSVK	GEQAGTFDV	En_HC	-0.17	6/6	1/18
GFDLNEYGIS	VIYADGKRTFYSDSVK	GQSAGTFDA	En_HC	-0.12	6/6	0/18
GFDLDEYGIS	VIYADGMRTAYADTVK	GNQAGTFDV	En_Gen	-0.10	6/6	0/18
GFDLNEYGIS	VIYADGVRTAYADDVK	GTNAGTFDL	En_Gen	-0.10	6/6	1/18
GFDLNSYGIS	VIYSDGRRTAYGDSVK	GRSAGTFDS	GP_Gen	-0.06	6/6	0/18
GFNLDEYGIS	VIYADGRRTFYADSVK	GQVAGTFDV	En_HC	-0.01	6/6	0/18
GFTLNEYGIS	VIYSDGRRTFYSDSVK	GQAAGTFDN	GP_HC	0.01	6/6	0/18
GFTLNSYGIS	VIYADGRRTFYGDSVK	GQAAGTFDM	GPLM_Gen	0.06	6/6	0/18
GFPLNEYGIS	VIYSDGKRTFYGDSVK	GRTAGTFDS	GP_Gibbs	0.11	6/6	0/18
GFDINEYGIS	VIYADGRRTAYADSVK	GNAAGTFDS	En_HC	0.13	6/6	0/18
GFDLDEYGIS	VIYADGMRTAYADDVK	GNEAGTFDL	En_Gen	0.14	6/6	1/18
GFELNSYGIS	VIYSDGRRTFYSDSVK	GQAAGTFDS	GPLM_Gen	0.20	6/6	0/18
GFDLQEYGIS	VIYADGVRYAYQNSVK	GQIAGTFNS	En_Gibbs	0.24	6/6	1/18
GFTLNSYGIS	VIYSDGRRTYYGDSVR	GRVAGTFDS	Ctrl	0.62	5/6	0/18
GFTLNSYGIS	VIYADGRRTFYGDQVK	GRTAGTFDS	GP_Gibbs	0.66	6/6	0/18
GFHLNSYGIS	VIYSDGRRTFYADSVK	GRNAGTFDS	GP_Gen	0.75	6/6	0/18
GFDLDEYGIS	VIYADGLRTAYSDSVK	GENAGTFDV	En_Gen	0.75	6/6	0/18
GFTLNEYGIS	VIYSDGRRTFYTDRVK	GEAAGTFDK	GP_HC	0.92	6/6	0/18
GFGLNEYGIS	VIYSDGRRTFYGDSVK	GRHAGTFDS	GP_Gen	0.96	6/6	1/18
GFTLNSYGIS	VIYSDGRRTFYADSVK	GNVAGTFDS	Ctrl+GPLM_Gen	0.97	12/12	1/36
GFSLNSYGIS	VIYSDGRRTFYKDSVK	GRQAGTFDS	GPLM_Gibbs	1.08	6/6	0/18
GFNLNSYGIS	VIYSDGRRTAYGDSVK	GRQAGTFDS	GPLM_Gibbs	1.11	6/6	0/18
GNTLDEYGIS	VIYADGVRKAYINKFK	GMMTGTFDQ	En_Gibbs	1.17	1/6	0/18
GFNLNSYGIS	VIYSDGRRTFYGDDVK	GRLAGTFDS	Ctrl	1.50	5/6	0/18
NFTLESYGIS	VIYSDGRRTFYDDSVK	GQLAGTFDS	GP_HC	1.60	2/6	0/18
GFDLMSYGIS	VIYSDGRRTFYADSVK	QRAAGTFDS	Ctrl	1.61	6/6	1/18
GKDMNEYGIS	VIYADGSRAAYGDNFK	GELAGTFDM	En_Gibbs	1.66	4/6	0/18
GFDLEKYGIH	VIYADGIRASYSDSVK	GDLSGTFYV	En_Gibbs	1.75	1/6	0/18
GFDLNEYGIS	VIYADGLRTAYADSVK	GEVAGTFDT	En_Gen	1.93	1/6	0/18
GFELDEYGIS	VIYADGARTAYVDNVK	GDAVGSFHV	En_Gibbs	1.93	1/6	0/18
GFTLNSYGIS	VIYSDGRRTFYQDSVK	GKLAGTFDS	GP_HC	1.99	2/6	0/18
GFTLNSYGIS	VIYSDGRRTFYGDSVK	GRVAGSFTV	GP_HC	2.47	3/6	0/18
GFWLNSYGIS	VIYSDGRRTWYDDSVK	GRHAGTFDS	Ctrl	2.95	3/6	1/18
GFDLNEYGIS	VIYADGRRTFYTDNVK	GQVAGTFDV	En_HC	not detected	0/6	0/18
GFTLNQYGIT	VIYSDGYRTFYGDSVK	GRATGTFDS	Ctrl	not detected	0/6	1/18
GFTINSYGIS	VIYSDGRRTFYGDSVK	LRAAGTFDS	Ctrl	not detected	0/6	0/18
GFGLAEYGIS	VIYADGIRKSYANKVK	GRLSGTVIM	En_Gibbs	not detected	0/6	0/18
GLTLNQYGRS	VIYSDGWRTFYSDSVK	GAAAGFVDS	Rand	not detected	0/6	0/18
GFTLNSYGIS	VIYSDGWRTAYGDSVK	GRAAGTFHT	Ctrl	not detected	0/6	0/18
RFTLNSYGIS	VIYSDGRRTFYGDSVK	HRAAGTFDP	Ctrl	not detected	0/6	0/18
GFDIGEYGIS	VIYADGSRTAYAKNVK	GGDVYKDAV	En_Gibbs	not detected	0/6	0/18
GFTLNMYGIS	VIYSDGRRTFYRDSVK	GRAAGTFES	Ctrl	not detected	0/6	0/18
GFTLNSYGIS	VIYSDGKRTFYADAVK	GRTAGTFWS	GP_Gibbs	not detected	0/6	0/18
GFNLNEYGIS	VIYADGRRTFYADSVK	GDQAGTFDM	En_HC	not detected	0/6	0/18

Excerpt, the final 5 entries:

CDR-H1,CDR-H2,CDR-H3,group,mean log10 Kd (nM),detected,signal with controls
RFTLNSYGIS,VIYSDGRRTFYGDSVK,HRAAGTFDP,Ctrl,not detected,0/6,0/18
GFDIGEYGIS,VIYADGSRTAYAKNVK,GGDVYKDAV,En_Gibbs,not detected,0/6,0/18
GFTLNMYGIS,VIYSDGRRTFYRDSVK,GRAAGTFES,Ctrl,not detected,0/6,0/18
GFTLNSYGIS,VIYSDGKRTFYADAVK,GRTAGTFWS,GP_Gibbs,not detected,0/6,0/18
GFNLNEYGIS,VIYADGRRTFYADSVK,GDQAGTFDM,En_HC,not detected,0/6,0/18

From the AlphaSeq antibody data of Li et al. 2023 (doi:10.1038/s41467-023-39022-2), copy in the FLAb collection.